The values that follow come from patent US20100260668A1.

This assay deals with EGFR on A431 cells (human) (UniProt P00533). As to the kind of experiment: cell-based or functional assay.

Take “AB033 (anti-EGFR (seq. 2) parent antibody)”: the Inhibition Of A431 Proliferation (% Inhibition At 2.4 nM Ab/DVD) is 14%, the Inhibition Of A431 Proliferation (% Inhibition At 21.6 nM Ab/DVD) was determined as 49% and the Inhibition Of EGFR Phosphorylation (% Inhibition At 60 nM Ab/DVD) was determined as 54%.
